Test results reported in ChEMBL document CHEMBL5331147.

The chains behind the UniProt entries cited, without tags or fusion partners. Where a name states a change or a piece, a line headed by the entry shows the natural chain unless it says otherwise.
UniProt P28335: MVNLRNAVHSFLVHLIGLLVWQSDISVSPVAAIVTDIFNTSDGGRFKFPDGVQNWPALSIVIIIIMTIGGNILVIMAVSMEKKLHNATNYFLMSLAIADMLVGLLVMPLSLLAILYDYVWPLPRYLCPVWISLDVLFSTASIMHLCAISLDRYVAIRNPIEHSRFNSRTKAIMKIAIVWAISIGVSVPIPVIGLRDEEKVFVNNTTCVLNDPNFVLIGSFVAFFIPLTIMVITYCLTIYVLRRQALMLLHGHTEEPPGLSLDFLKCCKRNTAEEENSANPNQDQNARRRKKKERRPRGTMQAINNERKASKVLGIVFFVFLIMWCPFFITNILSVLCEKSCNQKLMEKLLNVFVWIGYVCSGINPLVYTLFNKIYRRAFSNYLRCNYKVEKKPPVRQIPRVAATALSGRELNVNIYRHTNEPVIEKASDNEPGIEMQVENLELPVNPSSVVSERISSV
UniProt P28223, whole entry: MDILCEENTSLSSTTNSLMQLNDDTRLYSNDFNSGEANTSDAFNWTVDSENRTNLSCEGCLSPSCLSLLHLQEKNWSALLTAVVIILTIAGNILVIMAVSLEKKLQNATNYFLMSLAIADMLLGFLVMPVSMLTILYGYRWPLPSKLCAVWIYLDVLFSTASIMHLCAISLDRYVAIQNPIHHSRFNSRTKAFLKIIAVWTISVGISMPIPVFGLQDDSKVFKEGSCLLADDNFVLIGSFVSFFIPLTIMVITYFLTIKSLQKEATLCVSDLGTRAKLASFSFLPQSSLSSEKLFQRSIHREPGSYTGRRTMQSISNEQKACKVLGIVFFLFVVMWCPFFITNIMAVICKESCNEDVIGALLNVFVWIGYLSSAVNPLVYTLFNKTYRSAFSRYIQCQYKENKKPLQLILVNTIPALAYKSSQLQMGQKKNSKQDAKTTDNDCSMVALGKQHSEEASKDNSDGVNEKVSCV
UniProt P41595, whole entry: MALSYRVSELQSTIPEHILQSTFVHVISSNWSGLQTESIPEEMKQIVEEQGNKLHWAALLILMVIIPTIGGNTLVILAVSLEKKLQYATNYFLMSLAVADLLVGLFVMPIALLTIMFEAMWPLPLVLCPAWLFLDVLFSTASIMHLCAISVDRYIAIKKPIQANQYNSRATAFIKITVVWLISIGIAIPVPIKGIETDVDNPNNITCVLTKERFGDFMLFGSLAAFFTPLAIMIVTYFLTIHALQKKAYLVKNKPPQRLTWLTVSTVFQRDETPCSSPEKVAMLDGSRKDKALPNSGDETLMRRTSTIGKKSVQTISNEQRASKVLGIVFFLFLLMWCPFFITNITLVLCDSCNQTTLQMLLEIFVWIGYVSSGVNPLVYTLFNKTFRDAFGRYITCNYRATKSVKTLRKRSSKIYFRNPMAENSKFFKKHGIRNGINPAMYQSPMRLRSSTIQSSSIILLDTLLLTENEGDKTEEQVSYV

How the values were obtained:
[1] = biological target: 5-hydroxytryptamine receptor 2C (Homo sapiens) (UniProt P28335); conditions: CHO, dose 1.0 nM, time 15.0 min
[2] = biological target: 5-hydroxytryptamine receptor 2A (Homo sapiens) (UniProt P28223); conditions: CHO, filed as positive allosteric modulator, dose 1.0 nM, time 15.0 min
[3] = biological target: 5-hydroxytryptamine receptor 2B (Homo sapiens) (UniProt P41595); conditions: CHO, filed as positive allosteric modulator, dose 1.0 nM, time 15.0 min
[4] = filed as positive allosteric modulator

Row | SMILES | Emax [1, 4] | Emax [2] | Emax [3] | Emax ([1]; filed as negative allosteric modulator)
1 | CCCCCCCC/C=C\CCCCCCCC(=O)N[C@H](CO)[C@H](O)c1ccccc1 | 126% | 98.8% | 92.4% | –
2 | CCCCCCCC/C=C\CCCCCCCC(=O)NCCc1ccc(O)cc1 | 116% | – | – | –
3 | CCCCCCCC/C=C\CCCCCCCC(=O)N[C@@H](CO)C(=O)OC | 127% | – | – | –
4 | CCCCCCCC/C=C\CCCCCCCC(=O)N[C@@H](Cc1ccc(O)cc1)C(=O)OC | 128% | – | – | –
5 | CCCCCCCC/C=C\CCCCCCCC(=O)NCc1ccc(O)cc1 | 112% | – | – | –
6 | CCCCCCCC/C=C\CCCCCCCC(=O)NCCCCNC(=O)OC(C)(C)C | 118% | – | – | –
7 | CCCCCCCC/C=C\CCCCCCCC(=O)N[C@@H](Cc1ccc(O)cc1)C(=O)O | 107% | – | – | –
8 | CCCCCCCC/C=C\CCCCCCCC(=O)NC[C@H](O)CO | 100% | – | – | –
9 | CCCCCCCC/C=C\CCCCCCCC(=O)NCCOCCO | 106% | 99.6% | – | –
10 | CCCCCCCC/C=C\CCCCCCCC(=O)NCCCO | 126% | 99.2% | 95.6% | –
11 | CCCCCCCC/C=C\CCCCCCCC(=O)NCCN1CCOCC1 | 121% | 106% | – | –
12 | CCCCCCCC/C=C\CCCCCCCC(=O)NCCc1ccc(O)c(O)c1 | 121% | – | – | –
13 | CCCCCCCC/C=C\CCCCCCCC(=O)NCc1ccc(O)c(O)c1 | 123% | 102% | 101% | –
14 | CCCCCCCC/C=C\CCCCCCCC(=O)NC(CO)CO | 144% | 119% | 97.2% | –
15 | CCCCCCCC/C=C\CCCCCCCC(=O)N[C@H](C(=O)OC)[C@H](C)O | 110% | 109% | – | –
16 | CCCCCCCC/C=C\CCCCCCCC(=O)N[C@@H](CO)C(=O)O | 118% | – | – | –
17 | CCCCCCCC/C=C\CCCCCCCC(=O)N[C@@H](Cc1c[nH]c2ccccc12)C(=O)OC | 125% | 106% | – | –
18 | CCCCCCCC/C=C\CCCCCCCC(=O)NCC1CCN(C(=O)OC(C)(C)C)CC1 | – | – | – | 92.9%
19 | CCCCCCCC/C=C\CCCCCCCC(=O)N[C@H](C(=O)O)[C@H](C)O | 112% | – | – | –
20 | CCCCCCCC/C=C\CCCCCCCC(=O)NCC(O)CO (centres undefined) | 108% | – | – | –
21 | CCCCCCCC/C=C\CCCCCCCC(=O)NCC(OCC)OCC | 111% | – | – | –
22 | CCCCCCCC/C=C\CCCCCCCC(=O)N[C@@H](Cc1c[nH]c2ccccc12)C(=O)O | 117% | – | – | –
